Drawing on PubChem BioAssay AID1259422 (The Scripps Research Institute Molecular Screening Center, 2018), this text covers inhibition for 25 compounds.

The list shows a part of the results, in another mix than the full data. Calls of active or inactive are those of the source. Rule as the data show it: active = inhibition above about 32%; inactive = the rest.

As a reminder, the inhibition is the relative decrease from the control value, in per cent.

This test in a line: TEAD-YAP interaction inhibition, primary screen, TEAD-YAP interaction inhibitor project, luminescence, HEK-TIYL cells (AID 1259422).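 Also: 0% = median of test compound wells and 100% = reference inhibitor wells.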 The following applies: TEAD-Gal4/YAP UAS-luciferase luminescence, at 9.12 µM, active compounds read high.
For `O=C(Cc1ccc(F)cc1)N(Cc1cccnc1)C1CCN(CCc2ccccn2)CC1`, the inhibition is inactive: 2.79%.

`Cc1cc(NP(=O)(Oc2ccccc2)Oc2ccccc2)no1`: the inhibition is inactive: 0.25%.

Take `CCN(CC)C(=O)NP(=O)(Oc1ccccc1)Oc1ccccc1`: the inhibition is inactive: 9.19%.

With `COc1ccc(NC(=O)c2cc([N+](=O)[O-])cc([N+](=O)[O-])c2)c([N+](=O)[O-])c1`, the inhibition is inactive: -3.15%.

For the compound `O=C(Nc1ccncc1[N+](=O)[O-])c1ccc([N+](=O)[O-])cc1[N+](=O)[O-]`, the inhibition is inactive: 10.9%.

Turning to `O=C(COC(=O)c1ccc([N+](=O)[O-])cc1[N+](=O)[O-])c1ccc([N+](=O)[O-])cc1`, the inhibition is inactive: 21%.

As to `COc1cc(NC(=O)COC(=O)C(O)(c2ccccc2)c2ccccc2)cc(OC)c1`, the inhibition was inactive: -3.85%.

As for `Cc1cc(NP(=O)(/C=C(\Cl)c2ccccc2)/C=C(\Cl)c2ccccc2)n[nH]1`, the inhibition is inactive: 9.29%.

Turning to `COc1ccc(CCN2CCC(N(Cc3cccnc3)C(=O)NC(C)C)CC2)cc1`, the inhibition is inactive: -2.94%.

As to `O=[N+]([O-])c1ccc(N/N=C/c2cc3c(cc2[N+](=O)[O-])OCO3)c([N+](=O)[O-])c1`, the inhibition was inactive: -4.61%.

Take `OP1(c2ccccc2)=NC(c2ccccc2)=NC(C(Cl)(Cl)Cl)=N1` (stereo not given): the inhibition was inactive: -1.56%.

For `O=C(Oc1ccc([N+](=O)[O-])cc1[N+](=O)[O-])c1ccc(Cl)cc1[N+](=O)[O-]`, the inhibition was inactive: 7.02%.

Turning to `O=C(c1cccnc1)N(Cc1ccco1)C1CCN(CCc2cccs2)CC1`, the inhibition was inactive: -1.24%.

Take `CCOP(=O)(OCC)SCC(=O)NCC(=O)O`: the inhibition is inactive: 7.11%.

For the compound `CCOP(=S)(OCC)C1(C#N)CCCC1`, the inhibition is inactive: 6.38%.

Consider `CCCOP(=O)(OCCC)O/C(C)=C/SC#N`, for which the inhibition is inactive: 10.7%.

Take `ICC1CN=C(Nc2ncccn2)S1` (stereo not given): the inhibition was inactive: 2.32%.

As to `CC(=O)N(Cc1cccnc1)C1CCN(CCc2ccccn2)CC1`, the inhibition was inactive: 1.11%.

`O=[N+]([O-])c1ccc(C(O)C(CO)Nc2ccc([N+](=O)[O-])cc2[N+](=O)[O-])cc1` (stereo not given): the inhibition was inactive: -1.06%.

With `O=C(COC(=O)C(O)(c1ccccc1)c1ccccc1)NCC(F)(F)F`, the inhibition is inactive: -12.6%.

For the compound `BrCC1CN=C(Nc2ccccc2Br)S1` (stereo not given), the inhibition was inactive: 4.24%.

Turning to `CC(C)OP(=O)(OC(C)C)C(=O)c1ccccc1`, the inhibition was inactive: -0.75%.

Turning to `c1ccc2nc(-c3nc4ccccc4[nH]3)ccc2c1`, the inhibition is active: 68.7%.

Consider `CC(C)COP(=O)(Nc1cccc(F)c1)OCC(C)C`, for which the inhibition was inactive: 4.93%.

Consider `CC1CN(c2ccc([N+](=O)[O-])cc2[N+](=O)[O-])CCN1c1ccc([N+](=O)[O-])cc1[N+](=O)[O-]` (stereo not given), for which the inhibition was inactive: -4.99%.
